The values that follow come from PubChem BioAssay AID540299 (ICCB-Longwood Screening Facility, Harvard Medical School, 2011).

Amino acid sequences for entries named in this document (tags omitted).
UniProt P9WNP5, whole entry: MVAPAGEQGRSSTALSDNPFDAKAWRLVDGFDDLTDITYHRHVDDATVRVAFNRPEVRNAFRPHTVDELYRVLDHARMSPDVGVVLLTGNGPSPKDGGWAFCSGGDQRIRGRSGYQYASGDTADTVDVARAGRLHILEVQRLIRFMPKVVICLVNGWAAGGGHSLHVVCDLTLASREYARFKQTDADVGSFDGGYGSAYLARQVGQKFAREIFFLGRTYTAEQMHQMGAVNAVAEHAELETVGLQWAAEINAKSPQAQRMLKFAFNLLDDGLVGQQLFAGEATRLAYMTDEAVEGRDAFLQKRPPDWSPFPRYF

Only a part is listed here, and it is no random draw. The source made the active and inactive calls. Cut-off read from the data, not from the text of the source: active = inhibition above about 21% (passing the limit was not always enough); inactive = the rest.

The target of the assay is 1,4-dihydroxy-2-naphthoyl-CoA synthase (Mycobacterium tuberculosis (strain ATCC 25618 / H37Rv)) (UniProt P9WNP5). The experiment in a line: M. tuberculosis MenB inhibitors, primary screen, biochemical, absorbance (AID 540299). The note with it: MenB enzyme assay, absorbance read-out; stronger effect = higher value; concentration not given here.
One may read the inhibition as the relative decrease from the control value, in per cent. On to `CN(CCCl)CCCl`, for which the inhibition is inactive: 4.46%.
